Assay results taken from patent EP1731520A1.

Sequences of proteins named here, by UniProt entry; tags and fusion partners are left off.
UniProt P30542, whole entry: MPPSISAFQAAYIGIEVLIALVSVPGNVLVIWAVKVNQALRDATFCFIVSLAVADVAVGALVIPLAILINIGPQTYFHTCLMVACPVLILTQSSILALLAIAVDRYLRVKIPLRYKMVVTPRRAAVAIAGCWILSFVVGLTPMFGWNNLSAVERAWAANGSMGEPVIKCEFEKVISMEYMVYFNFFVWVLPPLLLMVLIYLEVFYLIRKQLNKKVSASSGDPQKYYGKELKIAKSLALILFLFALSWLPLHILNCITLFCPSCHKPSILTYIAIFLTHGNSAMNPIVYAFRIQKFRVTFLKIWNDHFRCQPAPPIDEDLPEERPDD

Key:
[1] = target: human adenosine A1 receptor (Homo sapiens, UniProt P30542); conditions: read-out: Al Yeast IC50; Table 6, Effect of N6-Substituent
[2] = target: human A1 adenosine receptor (Homo sapiens, UniProt P30542); experiment: fus1-LacZ β-galactosidase assay in yeast expressing the A1 receptor; conditions: NECA concentration of 10^-8 M

Structure (SMILES) | IC50 [1] | stimulation of β-galactosidase activity [2]
Cc1[nH]c2nc(-c3ccccc3)nc(NC3CC[C@@H](O)[C@@H](O)C3)c2c1C (some centres unmarked) [Compound 602] | > 0.01 µM | –
CCNC(=O)[C@H]1O[C@@H](n2cnc3c(N)ncnc32)[C@H](O)[C@@H]1O [NECA, 5'-N-ethylcarboxamidoadenosine] | – | approximately 2 fold
